Broadly, the IC50 is the concentration needed to halve the response being measured.

We go through 1 compound from ChEMBL document CHEMBL1124315, “N- and 2-substituted N-(phenylsulfonyl)glycines as inhibitors of rat lens aldose reductase” (J Med Chem, 1989).

SMILES strings stand for the structures.

In this assay the target is Aldo-keto reductase family 1 member B1 (Rattus norvegicus, UniProt P07943). Briefly: Inhibitory concentration against aldose reductase obtained from rat lens. The essentials: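 Enzyme from frozen rat eye lenses, homogenized in distilled water, centrifuged, taken as the 40% ammonium sulfate supernatant. Assay in 0.1 M phosphate pH 6.2 with 0.104 mM NADPH and 10 mM DL-glyceraldehyde, started by substrate and read as NADPH loss at 340 nm for 3.0 min. Screened at 100 μM; ≥3 concentrations in duplicate; IC50 by least-squares fit of the linear log dose–response segment.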

Regarding `O=C1NC(=O)[C@@]2(CCOc3ccc(F)cc32)N1` [SORBINIL], the IC50 was 180 nM.
